Our source for the IC50 values is ChEMBL document CHEMBL1131066, “2-Substituted aminopyrido[2,3-d]pyrimidin-7(8H)-ones. structure-activity relationships against selected tyrosine kinases and in vitro and in vivo anticancer activity” (J Med Chem, 1998).

By UniProt entry, the sequences of proteins in these tests, tags left out. Where a name states a change or a piece, a line headed by the entry shows the natural chain unless it says otherwise.
UniProt P05622: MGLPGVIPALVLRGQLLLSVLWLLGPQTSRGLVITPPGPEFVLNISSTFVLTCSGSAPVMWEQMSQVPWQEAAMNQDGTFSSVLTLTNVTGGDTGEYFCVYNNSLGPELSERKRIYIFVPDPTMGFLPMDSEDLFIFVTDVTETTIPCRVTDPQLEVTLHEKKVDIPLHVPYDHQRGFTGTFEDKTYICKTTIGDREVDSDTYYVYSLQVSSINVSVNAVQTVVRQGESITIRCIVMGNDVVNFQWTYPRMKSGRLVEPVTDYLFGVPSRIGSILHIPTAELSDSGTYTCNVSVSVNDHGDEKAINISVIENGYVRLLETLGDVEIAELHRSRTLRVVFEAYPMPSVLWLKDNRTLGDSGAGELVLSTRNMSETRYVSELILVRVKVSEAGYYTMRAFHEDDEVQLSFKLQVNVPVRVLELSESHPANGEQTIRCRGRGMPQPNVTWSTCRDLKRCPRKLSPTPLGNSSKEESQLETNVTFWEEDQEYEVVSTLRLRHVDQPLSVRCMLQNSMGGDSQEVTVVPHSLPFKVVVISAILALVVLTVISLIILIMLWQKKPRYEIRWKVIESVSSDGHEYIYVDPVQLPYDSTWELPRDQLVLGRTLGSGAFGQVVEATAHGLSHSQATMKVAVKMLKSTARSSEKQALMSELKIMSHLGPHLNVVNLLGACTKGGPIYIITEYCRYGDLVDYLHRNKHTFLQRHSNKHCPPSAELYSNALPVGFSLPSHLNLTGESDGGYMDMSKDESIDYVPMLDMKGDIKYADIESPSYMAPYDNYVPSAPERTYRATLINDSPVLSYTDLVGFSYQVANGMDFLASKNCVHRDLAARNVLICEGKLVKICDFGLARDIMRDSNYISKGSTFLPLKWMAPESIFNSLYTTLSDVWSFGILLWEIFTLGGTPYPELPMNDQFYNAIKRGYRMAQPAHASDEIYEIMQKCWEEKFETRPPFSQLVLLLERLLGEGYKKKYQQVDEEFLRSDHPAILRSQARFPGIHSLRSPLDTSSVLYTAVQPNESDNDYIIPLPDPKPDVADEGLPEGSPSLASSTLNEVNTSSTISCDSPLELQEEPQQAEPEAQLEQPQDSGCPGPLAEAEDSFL
UniProt P11362, whole entry: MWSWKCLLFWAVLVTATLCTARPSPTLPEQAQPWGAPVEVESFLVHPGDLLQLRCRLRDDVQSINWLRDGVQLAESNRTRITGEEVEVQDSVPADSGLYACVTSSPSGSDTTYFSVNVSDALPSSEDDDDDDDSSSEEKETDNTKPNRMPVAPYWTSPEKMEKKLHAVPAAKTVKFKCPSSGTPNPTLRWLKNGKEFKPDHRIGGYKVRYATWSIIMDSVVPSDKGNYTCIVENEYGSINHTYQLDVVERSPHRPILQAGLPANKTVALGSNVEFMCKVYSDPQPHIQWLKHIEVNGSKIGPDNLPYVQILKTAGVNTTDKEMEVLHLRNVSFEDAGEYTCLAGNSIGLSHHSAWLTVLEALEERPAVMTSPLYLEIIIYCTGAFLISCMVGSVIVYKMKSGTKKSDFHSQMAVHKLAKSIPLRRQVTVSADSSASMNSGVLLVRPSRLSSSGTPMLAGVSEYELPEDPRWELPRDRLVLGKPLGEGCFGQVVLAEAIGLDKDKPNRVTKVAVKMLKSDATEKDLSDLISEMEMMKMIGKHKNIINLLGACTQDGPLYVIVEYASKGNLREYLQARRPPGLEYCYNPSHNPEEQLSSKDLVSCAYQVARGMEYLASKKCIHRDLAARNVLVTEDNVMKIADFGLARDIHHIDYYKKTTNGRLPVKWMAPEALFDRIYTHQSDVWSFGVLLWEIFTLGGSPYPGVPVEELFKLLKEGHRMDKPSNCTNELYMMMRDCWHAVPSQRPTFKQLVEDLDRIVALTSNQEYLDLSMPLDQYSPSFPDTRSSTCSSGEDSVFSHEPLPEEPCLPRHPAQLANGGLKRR

Experiment [1] has as its target Platelet-derived growth factor receptor beta (Mus musculus, UniProt P05622).
Experiment [2] has as its target Fibroblast growth factor receptor 1 (Homo sapiens, UniProt P11362). The experiment in a line: Inhibitory concentration evaluated against fibroblast growth factor receptor 1.

The term IC50 denotes the concentration that gives 50% inhibition.

Compound `CN1CCN(CCCCNc2ncc3cc(-c4c(Cl)cccc4Cl)c(=O)n(C)c3n2)CC1` returned an IC50 in experiment [1] of 890 nM.

In the case of `COc1cccc(Nc2ncc3cc(-c4c(Cl)cccc4Cl)c(=O)n(C)c3n2)c1`, the figures for the half-inhibitory concentration (IC50) in experiment [2] and in experiment [1] were 370 nM and 530 nM, respectively.

Turning to `Cn1c(=O)c(-c2c(Cl)cccc2Cl)cc2cnc(Nc3cccnc3)nc21`, in experiment [1], half-maximal inhibition (IC50) was put at 120 nM.
